Molecules are shown by their SMILES. “Also recorded” adds a separate entry of the source.

For one assay, the system named is Medulloblastoma cells. Put plainly: Medulloblastoma cell growth, total cells per milliliter counted. Particulars: versus GSK-126 and UNC 1999. In kind it is cell-based.
The subject of a further assay is EZH2. In kind it is biochemical.

Consider `CCN(c1cc(-c2ccc(CN3CCOCC3)cc2)cc(C(=O)NCc2c(C)cc(C)[nH]c2=O)c1C)C1CCOCC1` [tazemetostat], for which the “effect on medulloblastoma cell growth compared with other small molecule EZH2 inhibitors” value in the assay with Medulloblastoma cells is “superior ability to decrease medulloblastoma cell growth; also recorded: greatest effect on medulloblastoma cell growth”. Moreover, the “targeting of WT and mutant EZH2” value in the assay on EZH2 was “potent in targeting both WT and mutant EZH2”.

For the origin of these results see patent US20210008075A1, “PEDIATRIC DOSING FOR TREATMENT OF CANCER WITH AN EZH2 INHIBITOR” (Epizyme, Inc., priority 2015, published 2021).
